Results as given in ChEMBL document CHEMBL1138891, “3-(4-Piperidinyl)indoles and 3-(4-piperidinyl)pyrrolo-[2,3-b]pyridines as ligands for the ORL-1 receptor” (Bioorg Med Chem Lett, 2006).

Experiments:
[1] = species on record: Homo sapiens; experiment: Selectivity for mu opioid receptor over ORL1 receptor
[2] = species on record: Homo sapiens; experiment: Selectivity for ORL1 receptor over mu opioid receptor
[3] = species on record: Homo sapiens; experiment: Selectivity for ORL1 receptor over kappa opioid receptor
[4] = species on record: Homo sapiens; experiment: Selectivity for ORL1 receptor over delta opioid receptor

Compound	Selectivity ratio [1]	Selectivity ratio [2]	Selectivity ratio [3]	Selectivity ratio [4]
c1ccc2c(CN3CCC(c4c[nH]c5ncccc45)CC3)cccc2c1	2.4	–	–	–
Fc1ccc2c(C3=CCN(C4Cc5cccc6cccc4c56)CC3)c[nH]c2c1 (configuration not stated)	–	> 30	> 30	> 30
Cn1cc(C2CCN(C3Cc4cccc5cccc3c45)CC2O)c2cccnc21 (configuration not stated)	–	67	> 1000	> 1000
Cc1[nH]c2ccc(Cl)cc2c1C1CCN(C2Cc3cccc4cccc2c34)CC1 (configuration not stated)	–	25	65	–
c1ccc(Oc2ccc(CN3CCC(c4c[nH]c5ncccc45)CC3)cc2)cc1	15	–	–	–
Fc1ccc2[nH]cc(C3CCN(C4Cc5cccc6cccc4c56)CC3)c2c1 (configuration not stated)	–	27	100	–
Fc1ccc2c(C3CCN(C4Cc5cccc6cccc4c56)CC3)c[nH]c2c1 (configuration not stated)	–	17	100	–
c1cc2c3c(cccc3c1)C(N1CCC(c3c[nH]c4ncccc34)CC1)C2 (configuration not stated)	–	98	690	> 1000
